# Yeast mating assay 2: variants of the scFv Ab-95

Source: Engelhart et al. 2022 (doi:10.1038/s41597-022-01779-4), MIT Lincoln Laboratory and A-Alpha Bio; data file from the FLAb repository.

Target: peptide PDVDLGDISGINAS, taken from heptad repeat 2 (HR2) of SARS-CoV-2 spike.

Parent scFv Ab-95: VH joined to VL by a 15-residue (Gly4Ser)3 linker. Changes lie in the light chain CDRs alone.
VH: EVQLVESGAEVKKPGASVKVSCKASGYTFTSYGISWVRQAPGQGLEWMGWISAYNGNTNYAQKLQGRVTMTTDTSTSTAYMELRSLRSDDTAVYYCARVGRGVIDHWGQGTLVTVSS
VL: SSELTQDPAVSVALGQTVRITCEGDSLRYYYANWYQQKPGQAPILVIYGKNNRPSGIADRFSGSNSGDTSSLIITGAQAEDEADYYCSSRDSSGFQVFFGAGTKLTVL

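The parent was found by panning a naive human phage display library on the peptide. The library (AAYL52) carries one to three amino acid substitutions per variant, with no insertions or deletions. AlphaSeq pools MATa yeast showing the antibodies with MATalpha yeast showing the peptide. Mating (16 h, 30 °C) was followed by selection of diploids and sequencing of their barcodes. A regression on co-assayed BCL2-family reference pairs converts the normalised counts of each replicate to an apparent Kd. Each pool was mated in three replicate cultures.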

Each variant is given by its three light chain CDRs, as the data file delimits them; those of the parent are EGDSLRYYYAN, GKNNRPS, SSRDSSGFQVF. This list gathers variants with a substitution at S88 (VL, numbered from residue 1). Each Kd is an estimate from the mating assay, the geometric mean of the replicates in which the pair was seen; lower is stronger. A pair that was not seen in any replicate is written "no signal"; this usually means weak binding, but a binder can also be missed. Three control strains display no target. For library AAYL52, 28% of the pairings with them gave a signal, with a median of 8.2 µM and one signal in twenty below 800 nM, so weak values seen in few replicates may be background. In this assay the parent's reference entry averaged 200 nM; its copy inside this library read 180 nM.

Variant EGDSLGYIYAN / GKNNRPS / ESRDSSGFQVF showed 650 nM (3 of 3 replicates).
Variant EGDSLRYYYFN / GKNNRPS / WSRDSSGFQAF showed 370 nM (1 of 3 replicates).
Variant YGDSLRYYEAN / GKNNRPS / LSRDSSGFQVF showed 110 nM (3 of 3 replicates).
Variant EGDSLRYYYAN / GKNNRPQ / ESRDSPGFQVF showed 150 nM (3 of 3 replicates).
Variant EGDSLRYYYAN / GKNNDPS / QSRDSSGFQVF showed 30 µM (2 of 3 replicates).
Variant EGDSLRYYYSN / GKNNRGS / LSRDSSGFQVF showed 9.1 µM (2 of 3 replicates).
Variant EGDSLRYYYAN / GKNGLPS / RSRDSSGFQVF showed no signal (0 of 3 replicates).
Variant EGDSLRYYYAN / GKWNRPS / CSRDSSGFQVF showed 4.5 µM (1 of 3 replicates).
Variant EGDSLVNYYAN / GKNNRPS / ESRDSSGFQVF showed 26 nM (3 of 3 replicates).
Variant EGDSLRYYYAN / GKNNRPS / MSQDSSGFQSF showed no signal (0 of 3 replicates).
Variant EGDSLRYYYAN / GKNNGPS / FSRDSSGFQPF showed 12 µM (1 of 3 replicates).
Variant ELDSLRYYYAN / GKNNRPS / HSRDSSMFQVF showed 3.3 µM (2 of 3 replicates).
Variant EGDSLRVYYAD / GKNNRPS / DSRDSSGFQVF showed 26 µM (2 of 3 replicates).
Variant EGDSLRYYYAN / GKNARPT / CSRDSSGFQVF showed 490 nM (3 of 3 replicates).
Variant EGDSLRYYYAN / GKNNFMS / MSRDSSGFQVF showed 49 µM (2 of 3 replicates).
Variant EGDSLRYYYAN / RKNNRFS / DSRDSSGFQVF showed 15 µM (1 of 3 replicates).
Variant EGDSLRYYYAN / GKNNRPS / NSDDSSGFGVF showed 5.8 µM (1 of 3 replicates).
Variant EGDSLRYYYAY / GKNNRPS / TSRDASGFQVF showed 6.9 µM (1 of 3 replicates).
Variant EGDSWRYYYAN / GKRNRPS / WSRDSSGFQVF showed 16 µM (2 of 3 replicates).
Variant EGDSLRYYYAN / GKNNRPF / FSRDSSGFMVF showed 4.5 µM (2 of 3 replicates).
Variant EGDSLRYWYAN / GKNNRNS / KSRDSSGFQVF showed 2.6 µM (3 of 3 replicates).
Variant YGDSLRYYYAN / GKNNRPS / MSRDSSGFQTF showed 6.0 µM (3 of 3 replicates).
Variant EGDSLRYYYAN / GKNNQPS / RSRDSLGFQVF showed 33 µM (2 of 3 replicates).
Variant EGDSLRYYYAN / GKNNRWS / LSRGSSGFQVF showed no signal (0 of 3 replicates).
Variant EGDSLRYYYAN / GDNNYPS / ESRDSSGFQVF showed 2.3 µM (3 of 3 replicates).
Variant EGDSLRQYYAN / GKNNRPS / VSNDSSGFQVF showed 1.9 µM (3 of 3 replicates).
Variant EGDSLRYYYAN / GANQRPS / PSRDSSGFQVF showed 4.8 µM (1 of 3 replicates).
Variant EGDSLRYYYAN / GKNNRPS / MFRDSSGGQVF showed 180 nM (3 of 3 replicates).
Variant EGDSLSYYYAN / GKINRPS / ISRDSSGFQVF showed 25 µM (2 of 3 replicates).
Variant EGDSLRFYYAN / GKNNRPS / ISRDSSGFQSF showed 610 nM (3 of 3 replicates).
Variant EGDSLRYYYAN / GKNNRPS / VSRDNSGFNVF showed 94 nM (1 of 3 replicates).
Variant EGDSVRYYYAN / GKNNRPN / YSRDSSGFQVF showed no signal (0 of 3 replicates).
Variant EWDSLGYYYAN / GKNNRPS / TSRDSSGFQVF showed 13 µM (1 of 3 replicates).
Variant EGDSLRYYYIN / GKNNRPS / ISRDSSGNQVF showed 7.8 µM (1 of 3 replicates).

From the list, the first 2 with no signal in any replicate:

CDR-L1,CDR-L2,CDR-L3,apparent Kd,replicates with signal
EGDSLRYYYAN,GKNGLPS,RSRDSSGFQVF,no signal,0/3
EGDSLRYYYAN,GKNNRPS,MSQDSSGFQSF,no signal,0/3